ChEMBL document CHEMBL1165960, “Identification of the three-dimensional pharmacophore of kappa-opioid receptor agonists” (Bioorg Med Chem, 2010)

By UniProt entry, the sequences of proteins in these tests, tags left out.
UniProt P41145, whole entry: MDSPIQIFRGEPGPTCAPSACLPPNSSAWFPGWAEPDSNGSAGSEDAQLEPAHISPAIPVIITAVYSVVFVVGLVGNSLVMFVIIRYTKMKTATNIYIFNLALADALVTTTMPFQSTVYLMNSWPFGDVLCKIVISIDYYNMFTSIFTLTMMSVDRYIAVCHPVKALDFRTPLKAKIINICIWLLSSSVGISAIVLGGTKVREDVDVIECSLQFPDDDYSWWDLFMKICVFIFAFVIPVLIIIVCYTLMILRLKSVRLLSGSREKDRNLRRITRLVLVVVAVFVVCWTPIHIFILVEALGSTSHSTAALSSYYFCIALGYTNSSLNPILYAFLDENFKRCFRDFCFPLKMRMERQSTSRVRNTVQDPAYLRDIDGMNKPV

Target: Kappa-type opioid receptor (Homo sapiens, UniProt P41145)

`CN(CCc1ccccc1)C(=O)[C@H]1C[C@@]23C=C[C@]1(O)[C@@H]1Oc4c(O)ccc5c4[C@@]12CCN(CC1CC1)[C@@H]3C5` gave a Ki of 0.279 nM.
